Measurements published in patent US20050106249A1 (priority 2002, published 2005).
Read-outs that look alike come from different tables or passages of the source.

Tests used:
[1] = male, human, in vivo
[2] = Mandema et al. 1996; oral solution 20 mg; cited from earlier work
[3] = human, in vivo

In the case of `COc1ccc2c3c1OC1C(=O)CC[C@@]4(O)[C@@H](C2)N(C)CC[C@]314` (stereo partly drawn) [oxycodone, 4,5-epoxy-14-hydroxy-3-methoxy-17-methylmorphinan-6-one], the ka mean value [1] is listed as 6.48 h⁻¹, the ka mean value [2] is listed as 4.19 h⁻¹ and the ka mean value [3] is listed as 4.19 h⁻¹.
